Test results: patent publication EP1018008B1

Chains of the proteins cited; added tags and fusions are not shown.
UniProt P41143, whole entry: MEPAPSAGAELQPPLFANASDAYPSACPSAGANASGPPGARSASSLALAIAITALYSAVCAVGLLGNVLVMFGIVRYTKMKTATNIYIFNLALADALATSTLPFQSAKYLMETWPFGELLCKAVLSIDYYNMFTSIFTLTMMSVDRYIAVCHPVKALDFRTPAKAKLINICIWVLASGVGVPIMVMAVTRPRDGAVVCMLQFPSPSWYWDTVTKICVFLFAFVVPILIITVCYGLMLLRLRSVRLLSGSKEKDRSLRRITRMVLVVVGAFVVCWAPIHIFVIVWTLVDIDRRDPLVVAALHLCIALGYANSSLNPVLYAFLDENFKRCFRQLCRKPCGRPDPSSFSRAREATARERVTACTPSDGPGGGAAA

Target: human delta receptor (Homo sapiens, UniProt P41143)
Assay: human delta receptor binding assay (affinity)
Conditions: comparison of human delta and mu affinities

COc1ccc(Oc2ccc([N+](=O)[O-])cc2C(=O)N2CCC(n3c(=O)[nH]c4ccccc43)CC2)cc1
activity on the delta receptor relative to the mu receptor: more active on the delta receptor than on the mu receptor
